## Apparent affinities of Ab-14 variants for a coronavirus HR2 peptide

Values reported by Engelhart et al. 2022, doi:10.1038/s41597-022-01779-4 (FLAb copy).

Antigen: PDVDLGDISGINAS, a 14-residue peptide of the SARS-CoV-2 spike HR2 region.

The variants keep the heavy chain, the linker and the frameworks of Ab-14 (scFv order VH, three GGGGS repeats, VL).
VH: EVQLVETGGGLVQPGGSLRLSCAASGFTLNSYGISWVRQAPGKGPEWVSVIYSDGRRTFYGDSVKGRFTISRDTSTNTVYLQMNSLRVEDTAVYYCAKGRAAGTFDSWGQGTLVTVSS
VL: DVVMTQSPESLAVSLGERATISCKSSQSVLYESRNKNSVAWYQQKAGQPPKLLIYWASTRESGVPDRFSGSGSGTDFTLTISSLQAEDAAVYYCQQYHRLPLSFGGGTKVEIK

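The starting antibody came from a phage panning campaign against this peptide. Library AAYL50 holds single substitutions and randomly drawn double and triple substitutions in the CDRs. The scFvs were displayed on barcoded MATa yeast, the peptide on MATalpha yeast. Mating (16 h, 30 °C) was followed by selection of diploids and sequencing of their barcodes. Each replicate has its own calibration line, from reference interactions of the BCL2 family. There are three technical replicates.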

The parent's light chain CDRs are KSSQSVLYESRNKNSVA, WASTRES, QQYHRLPLS; each variant's own CDRs replace them letter for letter.
This list gathers variants with a substitution at L30 (VL, numbered from residue 1).
Kd is apparent (estimated from mating counts) and averaged on the log scale over replicates with a signal. Smaller is tighter.
Where no diploid with the target was found in any replicate, the entry reads "nd": below detection, most likely a poor binder, though not proof of it.
As a blank, each scFv also met three strains without target: over library AAYL50, 18% of these pairings were detected, typically at 15 µM and seldom below 970 nM.

With KSSQNVNYESRNKNSVA / WAYTRES / QQYHRLPLS the result was 17 nM (3 of 3 replicates). For KSSQSVKYESRNKNSVA / WASTRES / QSYHRLPNS, the assay gave nd (0 of 3 replicates). For KSSQSVHYESRNKNSVA / WASTMES / QQYHLLPLS, the assay gave 3.5 µM (2 of 3 replicates). With KSTQSVEYESRNKNSVA / WASTRES / QQYHRLSLS the result was 29 nM (3 of 3 replicates). For KSSQSVKYESRNKNSVA / WASTREV / QCYHRLPLS, the assay gave 800 nM (1 of 3 replicates). The variant KSVQSVWYESRNKNGVA / WASTRES / QQYHRLPLS gave 5.9 µM (1 of 3 replicates). With KSSQMVVYESRNKNSVD / WASTRES / QQYHRLPLS the result was 1.1 µM (1 of 3 replicates). For ESSQSVMYESRNKNMVA / WASTRES / QQYHRLPLS, the assay gave 2.0 µM (1 of 3 replicates). The variant KSSQSVGYESRDKNSIA / WASTRES / QQYHRLPLS showed 18 nM (3 of 3 replicates).

The variant KSSQSVQYESRNKNSVA / WASTRMS / QQYHRFPLS gave 7.2 nM (3 of 3 replicates). The variant KSSQSVVYESRNKNSVA / WASHREN / QQYHRLPLS gave 38 nM (3 of 3 replicates). For KSSQSVMYESRNKNSVA / WASTRPS / QQYHRLPLS, the assay gave 33 nM (3 of 3 replicates). The variant KSSQSVQYESMNKNSVA / WASTRES / QQYHRLPLF gave 4.3 nM (3 of 3 replicates). For KSSQSVRYESRFKNSVW / WASTRES / QQYHRLPLS, the assay gave 26 µM (2 of 3 replicates). For KSSQSVEYESRYGNSVA / WASTRES / QQYHRLPLS, the assay gave 17 nM (3 of 3 replicates). The variant KSSQSVAYESRNKNSVA / IASTRET / QQYHRLPLS gave 560 nM (2 of 3 replicates). The variant KSSQSVEYESRNKNSVA / WASTRHS / QQYHRLRLS showed 52 µM (1 of 3 replicates). The variant KSSTSVSYESRNCNSVA / WASTRES / QQYHRLPLS showed 15 nM (3 of 3 replicates).

The variant KSSQSKIYESRNKNSVA / WASTRES / QQYHRNPLS showed 63 µM (2 of 3 replicates). For KSSQSVVYESRNKNSVA / WASTRES / QQNHRLPLS, the assay gave 52 nM (3 of 3 replicates). The variant KSSQSVIYASRNKNSVA / WASTRES / QQYHRLPLS gave 9.3 µM (2 of 3 replicates). The variant KSSQSVTYESENKNSVA / WASTRES / SQYHRLPLS gave 3.2 nM (3 of 3 replicates). With KSWQSVPYESRNKNSVA / WGSTRES / QQYHRLPLS the result was 7.9 nM (3 of 3 replicates). The variant KSSQSVRYESRNKNSVA / WASTRES / QQYHRLPLM showed 250 nM (3 of 3 replicates). With KSSQSVEYESTNKNSVA / WASTRES / QQDHRLPLS the result was 1.7 nM (3 of 3 replicates). The variant FSSQSVWYESRNKNSVA / WASTRES / QQIHRLPLS showed 690 nM (3 of 3 replicates). For KSSQSVIFESRNKNSVA / YASTRES / QQYHRLPLS, the assay gave 1.3 nM (3 of 3 replicates).

The variant KSSQSVDYESRNKNSVA / WAETRES / QQYHRLSLS showed 41 nM (3 of 3 replicates). The variant KSSQSVSYESRNKNSVA / WASYRES / QQYHRLPLS gave 10 nM (3 of 3 replicates). For KSSQSVYSESRNKNSVA / WAATRES / QQYHRLPLS, the assay gave 1.3 µM (3 of 3 replicates). The variant KSLQSVQYESRNKNSVA / WASTRES / QQYHRLPLS gave 6.9 nM (3 of 3 replicates). For KSSQSAAYESRNKNSVA / WASFRES / QQYHRLPLS, the assay gave 32 nM (3 of 3 replicates). The variant KSSQMVKYESYNKNSVA / WASTRES / QQYHRLPLS gave 48 nM (3 of 3 replicates). With KSSQSVRYESRNKNSVA / WASTRTS / QQYHRYPLS the result was 200 nM (3 of 3 replicates). The variant KSSQSVNYYSRNKNSVA / WASTRES / QQYCRLPLS showed 28 nM (3 of 3 replicates). The variant KSSQSVDYESRNKNSVA / WASTREE / QQYHRHPLS showed 8.3 µM (2 of 3 replicates).

For KSSQSAMYESRNKNSVA / WASTRES / QQYHQLPLS, the assay gave nd (0 of 3 replicates). The variant KSSGSVIYESRNKGSVA / WASTRES / QQYHRLPLS showed 3.5 µM (1 of 3 replicates). The variant KSSQSVAYESRNDNSVA / WASTEES / QQYHRLPLS showed nd (0 of 3 replicates). The variant KSSQSVQYEVRNKNSVA / QASTRES / QQYHRLPLS gave 4.8 nM (3 of 3 replicates). The variant KSSQSPHYEKRNKNSVA / WASTRES / QQYHRLPLS showed 110 nM (3 of 3 replicates). The variant KSSQSVEYESRNKNSVA / TASTRES / QQYERLPLS gave 12 nM (3 of 3 replicates). With KSGQSVDVESRNKNSVA / WASTRES / QQYHRLPLS the result was 2.4 nM (3 of 3 replicates). For KSSQSVYYESRNKNSVA / WASTRES / QWSHRLPLS, the assay gave nd (0 of 3 replicates). With KSSQSVMYESRNKNSVA / WASTIES / QCYHRLPLS the result was nd (0 of 3 replicates).

With KSSQSVWYESRNKNSVA / WASTRCS / QQYHRLPRS the result was nd (0 of 3 replicates). With KSSQSVGYESRNKNSRA / WASTREK / QQYHRLPLS the result was nd (0 of 3 replicates). For KSSQSLGYESRNKNSVA / WAVTRES / QQYHRLPLS, the assay gave nd (0 of 3 replicates). The variant KSSQSMGYESRNKNSLA / WASTRES / QQYHRLPLS gave 12 nM (3 of 3 replicates). The variant KSSQSVCYESRNKNSVA / WASDRES / QQYHRLPLS showed 30 nM (3 of 3 replicates).

The opening 7 entries, copied out:

{"CDR-L1": "KSSQNVNYESRNKNSVA", "CDR-L2": "WAYTRES", "CDR-L3": "QQYHRLPLS", "Kd": "17 nM", "detected": "3 of 3"}
{"CDR-L1": "KSSQSVKYESRNKNSVA", "CDR-L2": "WASTRES", "CDR-L3": "QSYHRLPNS", "Kd": "nd", "detected": "0 of 3"}
{"CDR-L1": "KSSQSVHYESRNKNSVA", "CDR-L2": "WASTMES", "CDR-L3": "QQYHLLPLS", "Kd": "3.5 µM", "detected": "2 of 3"}
{"CDR-L1": "KSTQSVEYESRNKNSVA", "CDR-L2": "WASTRES", "CDR-L3": "QQYHRLSLS", "Kd": "29 nM", "detected": "3 of 3"}
{"CDR-L1": "KSSQSVKYESRNKNSVA", "CDR-L2": "WASTREV", "CDR-L3": "QCYHRLPLS", "Kd": "800 nM", "detected": "1 of 3"}
{"CDR-L1": "KSVQSVWYESRNKNGVA", "CDR-L2": "WASTRES", "CDR-L3": "QQYHRLPLS", "Kd": "5.9 µM", "detected": "1 of 3"}
{"CDR-L1": "KSSQMVVYESRNKNSVD", "CDR-L2": "WASTRES", "CDR-L3": "QQYHRLPLS", "Kd": "1.1 µM", "detected": "1 of 3"}